Data: patent US20230265065A1 (WEST VIRGINIA UNIVERSITY BOARD OF GOVERNORS ON BEHALF OF …, priority 2020, published 2023)

Sequences of proteins named here, by UniProt entry; tags and fusion partners are left off. Residues count along the entry.
UniProt P23468, 21-1912 limits assumed: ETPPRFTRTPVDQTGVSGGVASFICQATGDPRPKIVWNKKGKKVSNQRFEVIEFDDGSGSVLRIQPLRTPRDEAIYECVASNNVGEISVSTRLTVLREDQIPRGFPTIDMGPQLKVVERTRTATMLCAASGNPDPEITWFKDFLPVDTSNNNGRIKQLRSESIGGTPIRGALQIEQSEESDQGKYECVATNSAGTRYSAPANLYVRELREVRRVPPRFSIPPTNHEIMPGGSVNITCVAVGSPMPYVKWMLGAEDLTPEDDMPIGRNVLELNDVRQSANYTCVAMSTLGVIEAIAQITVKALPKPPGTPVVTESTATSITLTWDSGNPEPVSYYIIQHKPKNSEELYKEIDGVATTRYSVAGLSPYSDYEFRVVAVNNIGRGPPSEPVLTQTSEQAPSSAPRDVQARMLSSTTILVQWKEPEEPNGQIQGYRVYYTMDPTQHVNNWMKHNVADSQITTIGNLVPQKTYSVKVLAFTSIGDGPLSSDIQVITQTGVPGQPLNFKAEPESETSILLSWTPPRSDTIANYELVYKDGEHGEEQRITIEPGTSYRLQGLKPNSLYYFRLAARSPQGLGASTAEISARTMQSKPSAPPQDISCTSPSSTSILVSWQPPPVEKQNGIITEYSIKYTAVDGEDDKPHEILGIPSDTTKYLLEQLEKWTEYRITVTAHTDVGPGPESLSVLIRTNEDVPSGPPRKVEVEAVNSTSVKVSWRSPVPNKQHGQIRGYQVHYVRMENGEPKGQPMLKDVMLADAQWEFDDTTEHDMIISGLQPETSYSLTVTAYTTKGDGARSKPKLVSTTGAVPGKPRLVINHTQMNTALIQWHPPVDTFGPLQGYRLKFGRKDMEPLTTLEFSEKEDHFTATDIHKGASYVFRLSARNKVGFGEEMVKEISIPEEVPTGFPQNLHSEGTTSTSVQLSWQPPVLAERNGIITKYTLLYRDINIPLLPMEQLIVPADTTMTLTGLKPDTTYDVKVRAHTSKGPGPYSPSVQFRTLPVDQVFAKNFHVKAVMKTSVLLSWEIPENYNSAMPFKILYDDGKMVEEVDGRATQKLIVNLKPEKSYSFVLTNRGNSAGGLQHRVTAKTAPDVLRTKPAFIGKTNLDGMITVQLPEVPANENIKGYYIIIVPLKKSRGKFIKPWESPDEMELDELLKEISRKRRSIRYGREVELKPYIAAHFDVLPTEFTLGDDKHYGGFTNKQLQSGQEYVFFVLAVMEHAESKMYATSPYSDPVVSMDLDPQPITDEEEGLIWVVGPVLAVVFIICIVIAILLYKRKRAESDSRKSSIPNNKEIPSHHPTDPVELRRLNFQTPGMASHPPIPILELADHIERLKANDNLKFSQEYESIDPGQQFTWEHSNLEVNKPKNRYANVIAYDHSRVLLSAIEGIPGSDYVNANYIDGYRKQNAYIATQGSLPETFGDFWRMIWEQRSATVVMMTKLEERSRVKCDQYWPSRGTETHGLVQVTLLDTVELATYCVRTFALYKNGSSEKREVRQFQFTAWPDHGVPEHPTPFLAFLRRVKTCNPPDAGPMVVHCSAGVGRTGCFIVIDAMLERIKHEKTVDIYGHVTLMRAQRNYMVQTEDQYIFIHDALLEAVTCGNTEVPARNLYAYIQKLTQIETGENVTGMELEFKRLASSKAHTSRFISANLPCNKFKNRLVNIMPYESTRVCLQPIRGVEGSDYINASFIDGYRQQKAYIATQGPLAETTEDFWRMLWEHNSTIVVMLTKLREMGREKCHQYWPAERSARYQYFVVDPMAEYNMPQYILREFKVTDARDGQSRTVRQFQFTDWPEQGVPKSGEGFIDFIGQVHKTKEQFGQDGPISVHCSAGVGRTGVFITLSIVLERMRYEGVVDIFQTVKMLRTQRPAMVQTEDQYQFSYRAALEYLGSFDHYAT
UniProt P23468, 1357-1612 limits assumed: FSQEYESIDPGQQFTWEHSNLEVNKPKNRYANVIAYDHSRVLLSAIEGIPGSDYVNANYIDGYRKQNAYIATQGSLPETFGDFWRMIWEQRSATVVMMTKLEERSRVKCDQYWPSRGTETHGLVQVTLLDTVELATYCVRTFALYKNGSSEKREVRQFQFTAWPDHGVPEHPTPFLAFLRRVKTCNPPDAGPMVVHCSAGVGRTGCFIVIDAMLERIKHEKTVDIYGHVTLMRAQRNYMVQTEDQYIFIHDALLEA

Legend:
PTPRD [1] = biological target: T1, PTPRD (Homo sapiens, UniProt P23468); assay: PTPRD inhibitor screen and IC50 at pH 7.5 and 37° C.; conditions: read-out: IC50 (PTPRD)
LAR-PTPs = assay: Preliminary LAR-PTP inhibition assay at pH 6.5; conditions: pH 6.5, 100 μM compound, 30 min preincubation
PTPRD [2] = biological target: T1, PTPRD; conditions: read-out: prior estimate of IC50 (PTPRD); in vitro, prior estimate (ref 14); cited from earlier work
wild-type mice = conditions: cited from earlier work
Ptprd knockout mice = conditions: cited from earlier work
[3] = cited from earlier work

## CCCCOc1cc2c(c(C=O)c1OC)CC(O)OC2=O (stereo not shown)
PTPRD [1]
  IC50: 2000 nM
LAR-PTPs
  LAR-PTP inhibitory activity: inhibits LAR and PTPR^1 more potently than PTPR^δ
PTPRD [2]
  IC50: 1000 to 3000 nM
wild-type mice; mice, linked to PTPR^δ inhibition
  cocaine reward in mice: reduce the cocaine reward in mice
wild-type mice; wild-type mice
  cocaine conditioned place preference and self-administration: reduces cocaine conditioned place preference and self-administration
Ptprd knockout mice
  cocaine conditioned place preference and self-administration: but not in the Ptprd knockout mice
[3]
  stability in aqueous DMSO: stability concerns

Where two headings read alike, the source gives them in different places.
